pKa data for five compounds are collected here from patent publication US6528656B1, “Linear or cyclic aminophosphonates as pH markers in phosphorus 31 NMR spectroscopy” (Centre National de la Recherche Scientifique (CNRS), priority 1998, dated 2003).

The series is described as follows: physchem. It counts as physicochemical.
`CCOP(=O)(OCC)C1(c2ccccc2)CCCN1` (centres unmarked) [Compound 5, 2-phenyl-2-diethoxyphosphorylpyrrolidine] displayed a pKa of 5.73. As to `CCCNC(C)(C)P(=O)(OCC)OCC` [Compound 7, 2-propylamino-2-diethoxyphosphorylpropane], the pKa was 6.77. Take `CCCCNC(C)CP(=O)(OCC)OCC` (centres unmarked) [Compound 8, N-[(1-methyl-2-diethoxyphosphoryl)ethyl]-N-n-butylamine]: the pKa came out at 8.64. In the case of `CCCNC(C)(c1ccccc1)P(=O)(OCC)OCC` (centres unmarked) [Compound 6, N-propyl-N-[1-phenyl-1-diethoxyphosphorylethyl]amine], the pKa stood at 5.67. Compound `CCOP(=O)(OCC)C1(C)CCCN1` (centres unmarked) [Compound 1, 2-methyl-2-diethoxyphosphorylpyrrolidine] came in with a pKa of 6.75.

As a reminder, the pKa is the pH at which an ionisable group is half protonated.
